Measurements as given in US5214055A, “Aminopiperidine 4-oxo-4H-chromen-2-yl compounds” (Adir et Compagnie, priority 1990, dated 1993).

Chains of the proteins cited; added tags and fusions are not shown.
UniProt P19327, whole entry, looked up: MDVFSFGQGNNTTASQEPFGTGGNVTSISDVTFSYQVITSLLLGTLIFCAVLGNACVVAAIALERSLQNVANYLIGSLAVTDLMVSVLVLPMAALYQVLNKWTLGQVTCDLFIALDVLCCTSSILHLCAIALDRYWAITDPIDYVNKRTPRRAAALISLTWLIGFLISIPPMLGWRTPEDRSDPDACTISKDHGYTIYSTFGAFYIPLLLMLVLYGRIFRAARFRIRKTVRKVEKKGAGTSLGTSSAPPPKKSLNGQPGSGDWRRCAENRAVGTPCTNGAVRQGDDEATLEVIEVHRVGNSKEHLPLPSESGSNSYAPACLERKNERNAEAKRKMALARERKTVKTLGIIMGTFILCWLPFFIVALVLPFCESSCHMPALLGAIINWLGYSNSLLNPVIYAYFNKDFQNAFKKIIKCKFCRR

The molecules below were run against 5HT1A receptor (Rattus norvegicus, UniProt P19327) (assay: "Tail-Flicks" test on rats (reduction of 8-OH-DPAT induced tail movements)). Details: s.c. route, tail movements induced by subcutaneous 8-OH-DPAT.
Format: in vivo
In the case of `CCC(=O)N(C)C1CCN(C2Cc3ccccc3C2)CC1`, the “ED50 (amount that reduces 8-OH-DPAT action by 50%)” value is reported as 0.31 mg/kg. `CCCC(=O)N(C)C1CCN(CC2Cc3ccccc32)CC1` (stereo not shown) was tested, and the “ED50 (amount that reduces 8-OH-DPAT action by 50%)” value was 1.25 mg/kg. `CN(C(=O)Oc1ccccc1)C1CCN(CC2Cc3ccccc32)CC1` (stereo not shown) [Example 12, Phenyl N-[1-(benzocyclobuten-1-ylmethyl)-piperid-4-yl]-N-methylcarbamate hydrochloride] was tested, and the “ED50 (amount that reduces 8-OH-DPAT action by 50%)” value was 2.50 mg/kg. With `CCC(=O)N(C)C1CCN(CC2Cc3ccccc32)CC1` (stereo not shown) the “ED50 (amount that reduces 8-OH-DPAT action by 50%)” value was 1.25 mg/kg.

Structures can show the parent of a compound that is named as a salt.
